## Yeast mating assay 2: variants of the scFv Ab-91

Target: peptide PDVDLGDISGINAS, taken from heptad repeat 2 (HR2) of SARS-CoV-2 spike.

Parent scFv Ab-91: VL joined to VH by a 15-residue (Gly4Ser)3 linker. Changes lie in the heavy chain CDRs alone.
VL: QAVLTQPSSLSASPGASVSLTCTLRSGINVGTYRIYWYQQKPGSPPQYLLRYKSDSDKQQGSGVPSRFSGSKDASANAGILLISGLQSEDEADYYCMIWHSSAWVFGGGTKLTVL
VH: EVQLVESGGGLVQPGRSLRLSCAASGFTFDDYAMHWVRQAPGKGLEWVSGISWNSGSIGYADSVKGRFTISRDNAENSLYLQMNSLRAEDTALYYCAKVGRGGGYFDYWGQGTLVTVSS

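In library AAYL51, one, two or three CDR residues were substituted; doubles and triples were drawn at random. The assay is AlphaSeq: two haploid yeast populations carry antibody and antigen on their surface. The frequency of each diploid, read from paired DNA barcodes, reflects how well the two displayed proteins bind. Read counts were normalised to the haploid input and turned into Kd by a linear fit to BCL2-family pairs of known affinity, for each replicate. There are three technical replicates.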

Sequences are complete VH domains.
Affinities are written as log10 Kd with Kd in nM; a lower number is a better binder.
Where no diploid with the target was found in that replicate, the entry reads "ND": below detection, most likely a poor binder, though not proof of it.
Nonspecific signal, from three strains lacking the peptide, appeared in 21% of pairings of library AAYL51, centred on 4.54 (5% of these signals below 3.26); values are not corrected for it. For each scFv, signals with the empty controls are counted beside the result, with their mean in brackets.

VH	log10 Kd, replicates	signal with controls
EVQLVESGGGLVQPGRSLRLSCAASGFTSDDYAMHWVRQAPGKGLEWVSGISWNSGSIGFADSVKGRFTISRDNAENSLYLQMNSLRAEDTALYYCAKVGRGGNYFDYWGQGTLVTVSS	5.18 / 5.06 / ND	2/9 (5.56)
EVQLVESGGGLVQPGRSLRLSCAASGFTFDDYAMHWVRQAPGKGLEWVSGISWNSGSIGNADSHKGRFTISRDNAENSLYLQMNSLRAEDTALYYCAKVGRGGGYFDDWGQGTLVTVSS	ND / ND / ND	1/9 (4.89)
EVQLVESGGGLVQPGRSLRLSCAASGFTFDDYAMHWVRQAPGKGLEWVSYISWNSGCIGYADSVKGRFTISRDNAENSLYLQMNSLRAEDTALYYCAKVERGGGYFDYWGQGTLVTVSS	4.41 / ND / ND	0/9
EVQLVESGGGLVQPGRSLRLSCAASGFTFDDYAMHWVRQAPGKGLEWVSGISYNSESIGYADSVKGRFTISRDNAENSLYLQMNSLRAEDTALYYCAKVGRGGGYGDYWGQGTLVTVSS	ND / ND / ND	0/9
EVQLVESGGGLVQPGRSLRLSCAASGFTKDDYAMHWVRQAPGKGLEWVSGISWNSGSIGYADSVKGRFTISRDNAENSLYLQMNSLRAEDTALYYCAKHGLGGGYFDYWGQGTLVTVSS	4.08 / ND / ND	4/9 (5.15)
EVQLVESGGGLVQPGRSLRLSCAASGFTGDDYAMHWVRQAPGKGLEWVSGISRNSGSIGYADCVKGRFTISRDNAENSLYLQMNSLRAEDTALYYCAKVGRGGGYFDYWGQGTLVTVSS	4.27 / 3.81 / ND	4/9 (4.14)
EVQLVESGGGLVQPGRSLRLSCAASGFTFDGYAMHWVRQAPGKGLEWVSGISWNSGSIGYADSRKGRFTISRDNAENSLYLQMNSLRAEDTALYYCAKVGRGGCYFDYWGQGTLVTVSS	ND / ND / ND	1/9 (4.55)
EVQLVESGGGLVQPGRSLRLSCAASHFTQDDYAMHWVRQAPGKGLEWVSGISWNSGSCGYADSVKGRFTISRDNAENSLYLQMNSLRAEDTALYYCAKVGRGGGYFDYWGQGTLVTVSS	ND / ND / ND	0/9
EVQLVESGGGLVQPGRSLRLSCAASGFTFDDYAMHWVRQAPGKGLEWVSGISWNSGSIGYADEVKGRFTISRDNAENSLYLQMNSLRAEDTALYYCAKFYRGGGYFDYWGQGTLVTVSS	ND / ND / ND	0/9
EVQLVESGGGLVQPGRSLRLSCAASGFTFDDYFMHWVRQAPGKGLEWVSGISWNSGSIGYADSVKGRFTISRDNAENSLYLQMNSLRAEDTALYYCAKVMRGGGYFDYWGQGTLVTVSS	4.47 / 4.44 / ND	5/9 (4.75)
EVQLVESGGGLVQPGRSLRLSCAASVFTFDDYAMHWVRQAPGKGLEWVSGISMNSGSIGYANSVKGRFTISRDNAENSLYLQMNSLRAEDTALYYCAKVGRGGGYFDYWGQGTLVTVSS	ND / ND / 3.19	1/9 (3.79)
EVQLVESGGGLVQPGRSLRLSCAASGFTFDDYAMHWVRQAPGKGLEWVSGISWNSKSIGYADSVKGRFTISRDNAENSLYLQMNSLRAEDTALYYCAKVGRGENYFDYWGQGTLVTVSS	ND / ND / 3.73	1/9 (4.10)
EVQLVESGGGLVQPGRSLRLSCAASGCTFDDYAMHWVRQAPGKGLEWVSHISWNSGSIGKADSVKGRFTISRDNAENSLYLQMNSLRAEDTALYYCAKVGRGGGYFDYWGQGTLVTVSS	ND / ND / 3.81	1/9 (4.48)
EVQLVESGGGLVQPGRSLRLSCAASGFTFDDYAMHWVRQAPGKGLEWVSGISWNSGSDGYADSVKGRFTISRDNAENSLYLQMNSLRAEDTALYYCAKVGRGGGNEDYWGQGTLVTVSS	5.53 / ND / ND	1/9 (3.92)
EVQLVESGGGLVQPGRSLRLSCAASGFTFDDYAMHWVRQAPGKGLEWVSGISWNSGSIGYAASVKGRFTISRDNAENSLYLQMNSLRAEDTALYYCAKVKRGGGYFDYWGQGTLVTVSS	2.30 / 2.12 / 1.79	5/9 (4.66)

From the list, the first 2 with no signal in any replicate:

| VH | log10 Kd, replicates | signal with controls |
|---|---|---|
| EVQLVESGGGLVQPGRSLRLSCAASGFTFDDYAMHWVRQAPGKGLEWVSGISWNSGSIGNADSHKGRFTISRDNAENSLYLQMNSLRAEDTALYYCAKVGRGGGYFDDWGQGTLVTVSS | ND / ND / ND | 1/9 (4.89) |
| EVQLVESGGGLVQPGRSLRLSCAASGFTFDDYAMHWVRQAPGKGLEWVSGISYNSESIGYADSVKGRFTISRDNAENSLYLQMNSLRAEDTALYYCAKVGRGGGYGDYWGQGTLVTVSS | ND / ND / ND | 0/9 |

Data: MIT Lincoln Laboratory AlphaSeq set, Engelhart et al. 2022, doi:10.1038/s41597-022-01779-4, as distributed in FLAb.